One compound from patent US9889093B2, “Application of andrographolide in the preparation of a pharmaceutical for treatment of inflammatory bowel disease, andrographolide enteric targeting micropellet, and method for preparation thereof” (TASLY PHARMACEUTICAL GROUP CO., LTD., priority 2013, dated 2018) can be followed below.

Test [1] has as its system zebra fish Crohn's disease model. Put plainly: Zebra fish Crohn's disease model (TNBS), efficacy. Format: in vivo. The note with it: prednisolone 10 μM.
For test [2] the test system is unchanged. Put plainly: Zebra fish Crohn's disease model (TNBS), efficacy. The note with it: prednisolone 10 μM in fish farm water, 48 hours. Format: in vivo. How it is done:
Crohn's disease model (mainly inflammation) was built by using TNBS (2,4,6-trinitrobenzenesulfonic acid), and 30 zebra fishes were randomly divided into each treating group. […] Image analysis software was used to analyze the pictures. Moreover, the intestinal mucosal thickness, intestinal lumen diameter and intestinal lumen area were observed carefully under a microscope and the intestinal lumen diameter and intestinal lumen area were analyzed quantitatively. Therapeutical efficacy of the tested drug in zebra fish Crohn's disease was calculated in accordance with the intestinal lumen area in each group. The calculation formula was presented as follows: Therapeutical efficacy (%)=[1−(the administration group−the blank control group)/(the model group−the blank control group)]×100%
Statistically analyzed results were expressed as mean±SE. Variance analysis was used for comparison among many groups, and Dunnett's T test for comparison between two groups.

“And” between values parts separate entries of the source, which are not always exact repeats. Identical values can stand only once.

As for `C[C@]12C=CC(=O)C=C1CC[C@@H]1[C@@H]2[C@@H](O)C[C@@]2(C)[C@H]1CC[C@]2(O)C(=O)CO` [prednisolone, reference compound], the Inflammation regression ratio in test [1] (based on neutrophil infiltration) is 72±4.14% and 72 ± 4.1 %. The “Ratio with the blank control group” value in test [1] (neutrophil number) was found to be 1.53 ± 0.07. In addition, in test [2], the “Intestinal lumen area reduced by (therapeutical efficacy)” value is given as 76±9.3%.
